Target: BRD4 (Homo sapiens (Human), UniProt O60885)
Assay: biochemical
Conditions: BRD4 IC50 (μM gmean)

SMILES	IC50
COC(=O)N1c2ccc3c(nc(C(C)OC4CCCCC4)n3C3CCC(C(=O)O)CC3)c2CC[C@@H]1C (some centres unmarked) [Example 685]	0.1 to 1 µM
COC(=O)N1c2ccc3c(nc(C(O)CC4CCCC4)n3C3CCCC(C(=O)O)C3)c2CC[C@@H]1C (some centres unmarked) [Example 454]	0.1 to 1 µM
COC(=O)N1c2ccc3c(nc(OCCn4cc(Cl)cn4)n3[C@H]3CC[C@H](C(=O)O)CC3)c2CC[C@@H]1C [Example 703]	0.1 to 1 µM
COC(=O)N1c2ccc3c(nc(C(C)c4ccc(OC)c(F)c4)n3C3CCC(C(=O)O)CC3)c2CC[C@@H]1C (some centres unmarked) [Example 653]	0.1 to 1 µM
COC(=O)N1c2ccc3c(nc(C(C)Cn4cc(Cl)cn4)n3C3CCC4(CC3)CNC4)c2CC[C@@H]1C (some centres unmarked) [Example 609]	0.1 to 1 µM
COC(=O)N1c2ccc3c(nc(C(O)c4ccc5oc(C)nc5c4)n3C3CCCC(C(=O)O)C3)c2CC[C@@H]1C (some centres unmarked) [Example 451]	0.1 to 1 µM
COC(=O)N1c2ccc3c(nc(N(C)c4ccccc4OC)n3[C@H]3CC[C@H](C(=O)O)CC3)c2CC[C@@H]1C [Example 761]	0.1 to 1 µM
COC(=O)N1c2ccc3c(nc(CCC4CCC4)n3[C@@H]3CCC[C@H](C(=O)O)C3)c2CC[C@@H]1C [Example 818]	0.1 to 1 µM
COC(=O)N1c2ccc3c(nc(CCC4CCCCC4)n3[C@@H]3CCC[C@@H](C(=O)O)C3)c2CC[C@@H]1C [Example 547]	0.1 to 1 µM
COC(=O)N1c2ccc3c(nc(N(C)c4cccc(Cl)c4)n3[C@H]3CC[C@H](C(=O)O)CC3)c2CC[C@@H]1C [Example 573]	0.1 to 1 µM
COC(=O)N1c2ccc3c(nc(Cc4cnc5[nH]ccc5n4)n3[C@@H]3CCC[C@@H](C(=O)O)C3)c2CC[C@@H]1C [Example 465]	0.1 to 1 µM
COC(=O)N1c2ccc3c(nc(C(C)Cn4ccc(Cl)n4)n3C3CCC(C(=O)O)CC3)c2CC[C@@H]1C (some centres unmarked) [Example 457]	0.1 to 1 µM
COC(=O)N1c2ccc3c(nc(C(C)Oc4ccccc4)n3C3CCC[C@@H](C(=O)O)C3)c2CC[C@@H]1C (some centres unmarked) [Example 411]	0.1 to 1 µM
COC(=O)N1c2ccc3c(nc(Cc4ccc5c(ccn5C)c4)n3[C@H]3CC[C@H](C(=O)O)CC3)c2CC[C@@H]1C [Example 507]	0.1 to 1 µM
COC(=O)N1c2ccc3c(nc(C(O)c4c(OC)ccc(F)c4OC)n3C3CCCC(C(=O)O)C3)c2CC[C@@H]1C (some centres unmarked) [Example 464]	0.1 to 1 µM
COC(=O)N1c2ccc3c(nc(N(C)c4cccc(Cl)c4)n3[C@@H]3CCC[C@@H](C(=O)O)C3)c2CC[C@@H]1C [Example 498]	0.1 to 1 µM
COC(=O)N1c2ccc3c(nc(C(Cc4ccccc4)NC(C)=O)n3C3CCC(C(=O)O)CC3)c2CC[C@@H]1C (some centres unmarked) [Example 517]	0.1 to 1 µM
COC(=O)N1c2ccc3c(nc(Cc4ccccc4)n3[C@@H]3CC[C@@H](C(=O)O)C(C)(C)C3)c2CC[C@@H]1C (single isomer, unassigned) [Example 50]	1 to 1000 µM
COC(=O)N1c2ccc3c(nc(C(O)c4ccc5c(ccn5C)c4)n3C3CCCC(C(=O)O)C3)c2CC[C@@H]1C (some centres unmarked) [Example 962]	0.01 to 0.1 µM
COC(=O)N1c2ccc3c(nc(Cc4cncc(OC(C)(C)C)n4)n3[C@@H]3CCC[C@@H](C(=O)O)C3)c2CC[C@@H]1C [Example 586]	0.1 to 1 µM
COC(=O)N1c2ccc3c(nc(Nc4ccc(F)c(F)c4)n3[C@H]3CC[C@H](C(=O)O)CC3)c2CC[C@@H]1C [Example 881]	0.1 to 1 µM
COC(=O)N1c2ccc3c(nc(C4(N(C)c5ccccn5)CC4)n3[C@@H]3CCC[C@@H](C(=O)O)C3)c2CC[C@@H]1C [Example 652]	0.1 to 1 µM
COC(=O)N1c2ccc3c(nc(OCCCc4ccccc4)n3[C@H]3CC[C@H](C(=O)O)CC3)c2CC[C@@H]1C [Example 767]	0.1 to 1 µM
COC(=O)N1c2ccc3c(nc(C(O)c4cc(Cl)ccc4OC)n3C3CCCC(C(=O)O)C3)c2CC[C@@H]1C (some centres unmarked) [Example 442]	0.1 to 1 µM

SMILES	IC50
COC(=O)N1c2ccc3c(nc(C(NC(C)=O)c4ccccc4)n3C3CCCC(C(=O)O)C3)c2CC[C@@H]1C (some centres unmarked) [Example 439]	0.1 to 1 µM
COC(=O)N1c2ccc3c(nc(C(C)Cc4ccccc4)n3C3CCCNCC3)c2CC[C@@H]1C (some centres unmarked) [Example 567]	0.1 to 1 µM
COC(=O)N1c2ccc3c(nc(C(O)c4ccc(OC)cc4)n3C3CCCC(C(=O)O)C3)c2CC[C@@H]1C (some centres unmarked) [Example 470]	0.1 to 1 µM
COC(=O)N1c2ccc3c(nc(Cc4ccc5[nH]ccc5c4)n3[C@H]3CC[C@H](C(=O)O)CC3)c2CC[C@@H]1C [Example 494]	0.1 to 1 µM
COC(=O)N1c2ccc3c(nc(C(C)Cc4ccccc4)n3C3CCC4(CC3)CNC4)c2CC[C@@H]1C (some centres unmarked) [Example 576]	0.1 to 1 µM
COC(=O)N1c2ccc3c(nc(C(O)c4cc(F)cc(F)c4)n3C3CCCC(C(=O)O)C3)c2CC[C@@H]1C (some centres unmarked) [Example 488]	0.1 to 1 µM
COC(=O)N1c2ccc3c(nc(C(O)c4cc(F)cc5cn[nH]c45)n3C3CCCC(C(=O)O)C3)c2CC[C@@H]1C (some centres unmarked) [Example 478]	0.1 to 1 µM
COC(=O)N1c2ccc3c(nc(C(C)C(O)c4ccccc4)n3C3CCCC(C(=O)O)C3)c2CC[C@@H]1C (some centres unmarked) [Example 425]	0.1 to 1 µM
COC(=O)N1c2ccc3c(nc(Nc4ccc(F)c(OC)c4)n3[C@@H]3CCC[C@@H](C(=O)O)C3)c2CC[C@@H]1C [Example 799]	0.1 to 1 µM
COC(=O)N1c2ccc3c(nc(NS(=O)(=O)c4ccccc4)n3[C@@H]3CCC[C@@H](C(=O)O)C3)c2CC[C@@H]1C [Example 715]	0.1 to 1 µM
COC(=O)N1c2ccc3c(nc(C(O)c4cc(Cl)cc(OC)c4)n3C3CCCC(C(=O)O)C3)c2CC[C@@H]1C (some centres unmarked) [Example 421]	0.1 to 1 µM
COC(=O)N1c2ccc3c(nc(C(O)c4cc(F)cc5cc[nH]c45)n3C3CCCC(C(=O)O)C3)c2CC[C@@H]1C (some centres unmarked) [Example 434]	0.1 to 1 µM
COC(=O)N1c2ccc3c(nc(Nc4cccc(C#N)c4)n3[C@H]3CC[C@H](C(=O)O)CC3)c2CC[C@@H]1C [Example 884]	0.1 to 1 µM
COC(=O)N1c2ccc3c(nc(C(O)c4cccc5c4COC5)n3C3CCCC(C(=O)O)C3)c2CC[C@@H]1C (some centres unmarked) [Example 826]	0.1 to 1 µM
COC(=O)N1c2ccc3c(nc(Nc4ccccc4OC)n3[C@H]3CC[C@H](C(=O)O)CC3)c2CC[C@@H]1C [Example 854]	0.1 to 1 µM
COC(=O)N1c2ccc3c(nc(C(C)Oc4ccccn4)n3C3CCC(C(=O)O)CC3)c2CC[C@@H]1C (some centres unmarked) [Example 765]	0.1 to 1 µM
COC(=O)N1c2ccc3c(nc([C@@H](O)c4cc(F)cc5cn[nH]c45)n3C3CCC[C@@H](C(=O)O)C3)c2CC[C@@H]1C (some centres unmarked) [Example 429]	0.1 to 1 µM
COC(=O)N1c2ccc3c(nc(C(O)c4ccc5ocnc5c4)n3C3CCCC(C(=O)O)C3)c2CC[C@@H]1C (some centres unmarked) [Example 458]	0.1 to 1 µM
COC(=O)N1c2ccc3c(nc(Nc4ccc(C#N)cc4)n3[C@H]3CC[C@H](C(=O)O)CC3)c2CC[C@@H]1C [Example 857]	0.1 to 1 µM
COC(=O)N1c2ccc3c(nc(Cc4ccccc4)n3[C@H]3CC[C@H](C(=O)O)C3)c2CC[C@@H]1C (single isomer, unassigned) [Example 55]	1 to 1000 µM
COC(=O)N1c2ccc3c(nc(C(Cc4ccccc4)NC(C)=O)n3C3CCCC(C(=O)O)C3)c2CC[C@@H]1C (some centres unmarked) [Example 469]	0.01 to 0.1 µM
COC(=O)N1c2ccc3c(nc(C(O)c4cccc(Cl)c4)n3C3CCCC(C(=O)O)C3)c2CC[C@@H]1C (some centres unmarked) [Example 423]	0.1 to 1 µM
COC(=O)N1c2ccc3c(nc([C@H](C)Oc4ccccc4)n3[C@H]3CC[C@H](C(=O)O)CC3)c2CC[C@@H]1C [Example 605]	0.1 to 1 µM

Reference: patent US11292791B2 (priority 2017, dated 2022)
